Earlier results in patent US20170112865A1, “TREATMENT FOR MELANOMA” (The Board of Regents of the University of Texas System, priority 2014, published 2017).

Tested on: BRAFV600E/k mutant advanced or malignant melanoma
Conditions: MEKi class effect

chorioretinopathy: < 1%
decreased ejection fraction: 7%
SMILES: CC(=O)Nc1cccc(-n2c(=O)n(C3CC3)c(=O)c3c(Nc4ccc(I)cc4F)n(C)c(=O)c(C)c32)c1 [Trametinib]
